Sequences of proteins named here, by UniProt entry; tags and fusion partners are left off. A change or cut given only in a name is not applied to a line headed by its entry.
UniProt P41145: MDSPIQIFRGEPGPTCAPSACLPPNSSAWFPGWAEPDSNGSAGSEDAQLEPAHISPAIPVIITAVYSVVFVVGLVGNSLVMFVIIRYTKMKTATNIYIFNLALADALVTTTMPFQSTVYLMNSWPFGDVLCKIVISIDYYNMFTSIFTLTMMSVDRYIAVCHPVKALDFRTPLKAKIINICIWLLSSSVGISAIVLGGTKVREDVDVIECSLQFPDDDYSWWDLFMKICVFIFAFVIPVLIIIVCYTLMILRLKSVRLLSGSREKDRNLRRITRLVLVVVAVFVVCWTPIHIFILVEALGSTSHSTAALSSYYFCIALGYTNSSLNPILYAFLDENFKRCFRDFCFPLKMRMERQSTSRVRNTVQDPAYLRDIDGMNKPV

In patent US20220324876A1, “4-SUBSTITUTED PYRANO[3,4,b]PYRAZINE KAPPA AGONISTS FOR TREATING DRUG DEPENDENCY” (The Rockefeller University, priority 2019, published 2022):

Target: kappa opioid receptor (KOP-R, hOPRK1) (Homo sapiens, UniProt P41145)
Details: read-out: Binding IC50

For `O=C(Cc1ccc(Cl)c(Cl)c1)N1CCN(C(=O)C2(O)CCC2)[C@@H]2COC[C@H](N3CCCC3)[C@H]21` (single isomer, unassigned) [Example 5A128A], which IC50 is on record?
The IC50 was 103 nM.
